Source: patent US9175305B2, “Mutant hydroxyphenylpyruvate dioxygenase polypeptides and methods of use” (Syngenta Participations AG, priority 2009, dated 2015)

Experiments:
Assay in all cases: biochemical
Format in all cases: binding
HPPD SEQ ID NO:24 = HPPD SEQ ID NO:24 (Avena sativa, UniProt A0ACD5V6K6, DEL109-109/L359M)
Procedure: (§1) On rates (governed by an association rate constant, kon) for the formation of the enzyme: inhibitor complexes, EI and off rates (governed by a dissociation rate constant, koff) were determined by methods known in the art and essentially as described in Hawkes et al. (2001) Proc. Bright. Crop. Prot. Conf. Weeds, 2:563-568 and in PCT Patent App. Pub. No. WO 02/46387).
(§2) For example, on rates were measured by, at zero time, adding ˜60 pmoles HPPD to 50 mM BisTrisPropane buffer at pH7.0 and at 25° C. containing 25 mM Na ascorbate, 4 μg/ml bovine catalase (Sigma, St. Louis, Mo.) and an excess (˜300 pmoles) of ^14C inhibitor in a total assay volume of 425 μl and, at various time points (0-180 s), quenching the radiolabel binding reaction by addition and rapid mixing of 100 μl ‘cold’ 1 mM structure A. Protein samples quenched at different times were then exchanged into 50 mM BisTrisPropane buffer at pH 7.0 containing 0.1M KCl by rapid chromatography down a NAP5 G25 Sephadex column (GE Healthcare Ltd, Buckinghamshire UK) and the amount of ^14C bound to protein fractions quantified in Optiphase scintillant using a Tri-Carb 2900TR scintillation counter (Perkin Elmer, Wellesley, Mass.). The data were fit according to the scheme below in order to derive the value of the apparent second order rate constant, k2, governing the association rate of enzyme and radiolabelled inhibitor. A range of enzyme and inhibitor concentrations were used. […] Further example methods are described in PCT Patent App. Pub. No. WO 02/46387.
(§3) Off rates (k1 in the scheme below) were derived from exchange rate studies where either the test inhibitor, I, or its exchange partner, J were radiolabelled and the data fit according to the scheme below. As noted in Hawkes et al. (2001) Proc. Bright. Crop. Prot. Conf.
(§4) After 30 minutes the exchange reaction was initiated with addition of 100 μl 1 mM ‘cold’ structure A with thorough mixing, and, immediately, 150 μl were withdrawn and loaded onto a NAP5 column, the protein exchanged into 50 mM BisTrisPropane buffer at pH 7.0 containing 0.1M KCl by rapid (<2 min) chromatography down a NAP5 G25 Sephadex column (GE Healthcare Ltd, Buckinghamshire UK) and the amount of ^14C bound to protein measured by Optiphase scintillant using a Tri-Carb 2900TR scintillation counter (Perkin Elmer, Wellesley, Mass.). Further aliquots were removed and measured in the same way at various times over minutes or hours as required in order to determine the exchange kinetics.
(§5) After 30 minutes the reaction vessel was transferred to ice. After a further 10 minutes at ice temperature the exchange reaction was initiated by addition of 100 μl 1 mM Structure A, with thorough mixing, and 150 μl was withdrawn and loaded onto a NAP5 column in a cold room at ˜5-8° C. in order to quantify the amount of radiolabel remaining bound to the protein at various time from the start of exchange at ice temperature.
(§6) Off rates (k1) of HPPD inhibitors that are not available radiolabelled or that present other measurement problems (for example high levels of background non-specific protein-binding which can be measured as radiolabel binding that persists in the presence of high concentrations of ‘cold’ inhibitor) may be measured indirectly. […] Exemplary methods are also described in PCT Patent App. Pub. No. WO 02/46387.

HPPD SEQ ID NO:18 = HPPD SEQ ID NO:18 (Avena sativa, UniProt A0ACD5V6K6, DEL109-109/I285T)
Procedure: as §1, §2, §3, §4, §5, §6

HPPD SEQ ID NO:15 = HPPD SEQ ID NO:15 (Avena sativa, UniProt A0ACD5V6K6, DEL109-109/Q298A)
Procedure: as §1, §2, §3, §4, §5, §6

HPPD SEQ ID NO:22 = HPPD SEQ ID NO:22 (Avena sativa, UniProt A0ACD5V6K6, DEL109-109/L256M)
Procedure: as §1, §2, §3, §4, §5, §6

HPPD SEQ ID NO:26 = target: T1, HPPD SEQ ID NO:26 (Avena sativa, UniProt A0ACD5V6K6, DEL109-109/L256M/L359M)
T1 sequence (A0ACD5V6K6 with tags, fused parts or gaps DEL109-109/L256M/L359M): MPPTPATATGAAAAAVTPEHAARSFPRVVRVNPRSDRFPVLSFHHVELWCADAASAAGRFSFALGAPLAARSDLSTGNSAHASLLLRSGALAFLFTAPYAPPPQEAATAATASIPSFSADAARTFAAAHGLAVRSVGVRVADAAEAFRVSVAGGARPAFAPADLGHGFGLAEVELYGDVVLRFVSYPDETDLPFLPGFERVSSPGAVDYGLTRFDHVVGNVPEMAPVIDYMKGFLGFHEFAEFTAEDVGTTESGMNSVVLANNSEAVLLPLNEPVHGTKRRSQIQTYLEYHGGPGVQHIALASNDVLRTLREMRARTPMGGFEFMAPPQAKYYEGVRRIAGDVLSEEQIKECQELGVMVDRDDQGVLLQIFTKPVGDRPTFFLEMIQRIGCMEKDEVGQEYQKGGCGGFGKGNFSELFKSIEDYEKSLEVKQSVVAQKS
Procedure: as §1, §2, §3, §4, §5, §6

HPPD SEQ ID NO:25 = HPPD SEQ ID NO:25 (Avena sativa, UniProt A0ACD5V6K6, DEL109-109/L359A)
Procedure: as §1, §2, §3, §4, §5, §6

HPPD SEQ ID NO:23 = HPPD SEQ ID NO:23 (Avena sativa, UniProt A0ACD5V6K6, A242W/DEL109-109)
Procedure: as §1, §2, §3, §4, §5, §6

HPPD SEQ ID NO:21 = HPPD SEQ ID NO:21 (Avena sativa, UniProt A0ACD5V6K6, DEL109-109/I285V)
Procedure: as §1, §2, §3, §4, §5, §6

HPPD SEQ ID NO:16 = HPPD SEQ ID NO:16 (Avena sativa, UniProt A0ACD5V6K6, DEL109-109/Q298G)
Procedure: as §1, §2, §3, §4, §5, §6

HPPD SEQ ID NO:17 = HPPD SEQ ID NO:17 (Avena sativa, UniProt A0ACD5V6K6, DEL109-109/Q298S)
Procedure: as §1, §2, §3, §4, §5, §6

HPPD SEQ ID NO:20 = HPPD SEQ ID NO:20 (Avena sativa, UniProt A0ACD5V6K6, DEL109-109/I285S)
Procedure: as §1, §2, §3, §4, §5, §6

HPPD SEQ ID NO:19 = HPPD SEQ ID NO:19 (Avena sativa, UniProt A0ACD5V6K6, DEL109-109/I285A)
Procedure: as §1, §2, §3, §4, §5, §6

CS(=O)(=O)c1ccc(C(=O)C2C(=O)CCCC2=O)c([N+](=O)[O-])c1 [Structure B, mesotrione]
Kd (HPPD SEQ ID NO:24): 22.4 nM | dissociation from HPPD SEQ ID NO:24 compared with HPPD SEQ ID NO:14 (HPPD SEQ ID NO:24; off rate, FIGS. 4A-4C): about twice as fast | koff (HPPD SEQ ID NO:24; read-out: koff (k1)): 0.00157 s⁻¹ | SEQ ID NO:24 superior to SEQ ID NO:14 (in vitro, in particular off rate data) (HPPD SEQ ID NO:24; relative to SEQ ID NO:14): 2 fold | Kd (HPPD SEQ ID NO:18): 17.1 nM | koff (HPPD SEQ ID NO:18; read-out: koff (k1)): 0.0006 s⁻¹ | kon (HPPD SEQ ID NO:18; read-out: kon (k2)): 35000 M⁻¹ s⁻¹ | Kd (HPPD SEQ ID NO:15): 11.4 nM | koff (HPPD SEQ ID NO:15; read-out: koff (k1)): 0.0008 s⁻¹ | kon (HPPD SEQ ID NO:15; read-out: kon (k2)): 70000 M⁻¹ s⁻¹ | Kd (HPPD SEQ ID NO:22): 17.1 nM | koff (HPPD SEQ ID NO:22; read-out: koff (k1)): 0.0012 s⁻¹ | Kd (HPPD SEQ ID NO:26): 42.9 nM | koff (HPPD SEQ ID NO:26; read-out: koff (k1)): 0.003 s⁻¹ | Kd (HPPD SEQ ID NO:25): 40 nM | koff (HPPD SEQ ID NO:25; read-out: koff (k1)): 0.0008 s⁻¹ | kon (HPPD SEQ ID NO:25; read-out: kon (k2)): 20000 M⁻¹ s⁻¹ | Kd (HPPD SEQ ID NO:23): 10 nM | koff (HPPD SEQ ID NO:23; read-out: koff (k1)): 0.0007 s⁻¹ | kon (HPPD SEQ ID NO:23; read-out: kon (k2)): 70000 M⁻¹ s⁻¹ | Kd (HPPD SEQ ID NO:21): 8.6 nM | koff (HPPD SEQ ID NO:21; read-out: koff (k1)): 0.0006 s⁻¹ | kon (HPPD SEQ ID NO:21; read-out: kon (k2)): 70000 M⁻¹ s⁻¹ | Kd (HPPD SEQ ID NO:16): 37.7 nM | koff (HPPD SEQ ID NO:16; read-out: koff (k1)): 0.002 s⁻¹ | kon (HPPD SEQ ID NO:16; read-out: kon (k2)): 53000 M⁻¹ s⁻¹ | Kd (HPPD SEQ ID NO:17): 18.9 nM | koff (HPPD SEQ ID NO:17; read-out: koff (k1)): 0.001 s⁻¹ | kon (HPPD SEQ ID NO:17; read-out: kon (k2)): 53000 M⁻¹ s⁻¹ | Kd (HPPD SEQ ID NO:20): 28.6 nM | koff (HPPD SEQ ID NO:20; read-out: koff (k1)): 0.0009 s⁻¹ | kon (HPPD SEQ ID NO:20; read-out: kon (k2)): 31500 M⁻¹ s⁻¹ | Kd (HPPD SEQ ID NO:19): 19.7 nM | koff (HPPD SEQ ID NO:19; read-out: koff (k1)): 0.00075 s⁻¹ | kon (HPPD SEQ ID NO:19; read-out: kon (k2)): 38000 M⁻¹ s⁻¹
